Data as given in ChEMBL document CHEMBL2417369, “Synthesis and evaluation of heteroaryl substituted diazaspirocycles as scaffolds to probe the ATP-binding site of protein kinases” (Bioorg Med Chem, 2013).

Chains of the proteins cited; added tags and fusions are not shown.
UniProt Q15418, whole entry: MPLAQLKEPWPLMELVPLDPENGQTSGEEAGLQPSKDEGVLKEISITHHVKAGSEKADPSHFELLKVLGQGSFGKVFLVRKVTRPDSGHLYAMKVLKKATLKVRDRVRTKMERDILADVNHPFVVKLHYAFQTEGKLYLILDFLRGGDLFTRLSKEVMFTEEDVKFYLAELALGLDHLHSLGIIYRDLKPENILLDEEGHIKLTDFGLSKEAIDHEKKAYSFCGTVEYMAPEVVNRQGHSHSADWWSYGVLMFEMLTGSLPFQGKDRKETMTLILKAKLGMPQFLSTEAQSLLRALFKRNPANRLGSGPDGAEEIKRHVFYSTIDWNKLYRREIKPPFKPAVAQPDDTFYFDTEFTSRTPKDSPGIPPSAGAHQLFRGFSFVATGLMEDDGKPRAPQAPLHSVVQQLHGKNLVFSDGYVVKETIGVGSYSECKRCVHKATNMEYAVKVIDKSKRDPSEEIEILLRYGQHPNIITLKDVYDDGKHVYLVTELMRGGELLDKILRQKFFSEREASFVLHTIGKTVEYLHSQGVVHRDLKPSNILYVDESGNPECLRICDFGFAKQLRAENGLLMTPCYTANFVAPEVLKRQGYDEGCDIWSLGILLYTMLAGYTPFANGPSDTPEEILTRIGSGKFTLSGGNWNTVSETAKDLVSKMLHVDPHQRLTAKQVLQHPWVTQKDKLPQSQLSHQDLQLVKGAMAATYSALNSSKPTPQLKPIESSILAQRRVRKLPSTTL

Target: Ribosomal protein S6 kinase alpha-1 (Homo sapiens, UniProt Q15418)
Assay: Inhibition of RSK1 (unknown origin) by microfluidic mobility shift assay

Structure (SMILES): c1nc(N2CCC3(CCCNC3)CC2)c2nc[nH]c2n1
- IC50: 13 µM
